In one experiment the target is BACE (Homo sapiens, UniProt P56817). In words: In vitro enzymatic BACE FRET assay. The format is biochemical. The settings on record: read-out: BACE 1 FRET assay; average IC50, enzyme assay. Here is the method:
In Vitro Enzymatic BACE FRET (Fluorescence Resonance Energy Transfer) Assay (Enzyme Assay Data in the Example Table I) The assay buffer used in this screen is 0.05 M acetate, pH 4.2, 10% DMSO final, 100 uM genapol (which is a nonionic detergent, below its Critical Micelle Concentration). The beta secretase enzyme (0.2 nM) is pre-incubated for one hour with inhibitors, typically in about 1 uL of DMSO according to a serial dilution, are added thereto. This assay is effectively started by the addition of FRET substrate (50 nM) and the combination is incubated for one hour. The FRET assay is terminated with by addition of Tris buffer, which raises the pH to neutrality, and the fluorescence is determined. The FRET substrate is a peptide with commercially available fluorophore and quencher, on opposite sides of the BACE cleavage site. Proteolytic cleavage of the FRET substrate releases quenching of fluorescence (excitation 488 nm and emission […]).

By UniProt entry, the sequences of proteins in these tests, tags left out. Residues count along the entry.
UniProt P56817, 46-501 limits assumed: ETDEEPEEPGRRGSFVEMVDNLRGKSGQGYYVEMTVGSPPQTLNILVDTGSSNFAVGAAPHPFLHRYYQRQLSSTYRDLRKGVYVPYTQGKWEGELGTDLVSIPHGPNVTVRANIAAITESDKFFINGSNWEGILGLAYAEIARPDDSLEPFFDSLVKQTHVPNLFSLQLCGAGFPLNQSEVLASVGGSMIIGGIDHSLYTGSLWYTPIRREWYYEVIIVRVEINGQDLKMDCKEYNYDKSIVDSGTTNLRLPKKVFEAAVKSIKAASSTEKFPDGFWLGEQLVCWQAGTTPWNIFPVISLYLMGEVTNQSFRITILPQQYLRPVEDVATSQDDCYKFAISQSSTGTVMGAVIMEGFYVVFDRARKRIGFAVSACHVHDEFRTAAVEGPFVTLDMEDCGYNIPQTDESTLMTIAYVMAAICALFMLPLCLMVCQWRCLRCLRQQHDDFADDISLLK

Another experiment has as its system Aβ40. In words: In vitro BACE cell-based assay (Aβ40 sandwich ELISA, cells stably expressing APP). The settings on record: read-out: HEK cell assay. Here is the method:
In Vitro BACE Cell-Based Assay
The cell-based assay measures inhibition or reduction of Aβ40 in conditioned medium of test compound treated cells expressing amyloid precursor protein.
Cells stably expressing Amyloid Precursor Protein (APP) were plated at a density of 40K cells/well in 96 well plates (Costar). The cells were cultivated for 24 hours at 37° C. and 5% CO2 in DMEM supplemented with 10% FBS. The test compounds were then added to cells in 10-point dose response concentrations with the starting concentration being either 100 μM or 10 μM. The compounds were diluted from stock solutions in DMSO and the final DMSO concentration of the test compounds on cells was 0.1%. After 24 h of incubation with the test compounds the supernatant conditioned media was collected and the Aβ40 levels were determined using a sandwich ELISA. The IC50 of the compound was calculated from the percent of control or percent inhibition of Aβ40 as a function of the concentration of the test compound.
The sandwich ELISA to detect Aβ40 was performed in 96 well microtiter plates, which were pre-treated with goat anti-rabbit IgG (Pierce). The capture and detecting antibody pair that were used to detect Aβ40 from cell supernatants were affinity purified pAb40 (Biosource) and biotinylated 6E10 (Signet Labs Inc.), respectively. The optimal concentration for the pAb40 antibody was 3 μg/ml in Superblock/TBS (Pierce) that was supplemented with 0.05% Tween 20 (Sigma). Optimal concentration for the detection antibody 6E10-biotinylated was 0.5 μg/ml in Superblock/TBS (Pierce) that had been supplemented with 2% normal goat serum and 2% normal mouse serum.
Cellular supernatants were incubated with the capture antibody for 3 h at 4° C., followed by 3 wash steps in TBS-tween (0.05%). The detecting antibody incubation was for 2 h at 4° C., again followed by the wash steps as described previously. The final readout of the ELISA is Time-Resolved Fluorescence (counts per minute) using Delfia reagents Streptavidin-Europium and Enhancement solutions (Perkin Elmer) and the Victor 2 multilabel counter (Perkin Elmer).
Background: In an ELISA, binding on a coated surface is turned into a signal by an enzyme label.

For another experiment, the system named is Abeta 40. In words: In vivo inhibition of beta-secretase: Abeta 40 reduction in CSF and brain of the rat. The note with it: after 4 hrs. An excerpt: In Vivo Inhibition of Beta-Secretase
Several animal models, including mouse, rat, dog, and monkey, may be used to screen for inhibition of beta-secretase activity in vivo following administration of a test compound sample. Animals used in this invention can be wild type, transgenic, or gene knockout animals. For example, the Tg2576 mouse model, prepared and conducted as described in Hsiao et al., 1996, Science 274, 99-102, and other non-transgenic or gene knockout animals are useful to analyze in vivo inhibition of Amyloid beta peptide (Abeta) production in the presence of inhibitory test compounds. Generally, 2 to 18 month old Tg2576 mice, gene knockout mice or non-transgenic animals are administered test compounds formulated in vehicles, such as cyclodextran, phosphate buffers, hydroxypropyl methylcellulose or other suitable vehicles. […] CSF or brain supernatants are then analyzed for the presence of A-beta peptide by specific sandwich ELISA assays based on ECL (Electrochemiluminescence) technology. For example, rat Abeta40 is measured using biotinylated-4G8 (Signet) as a capture antibody and Fab40 (an in-house antibody specific to the C-terminal of Abeta40) as a detection antibody. […]

[1] abbreviates: average IC50, cell assay, HEK cells.

Like-named read-outs stand apart in the source and are kept apart here.

`NC1=NC2(COC1C1CCOCC1)c1cc(-c3cccnc3F)ccc1Oc1cnc(Cl)cc12` (stereo not shown): the IC50 turned out to be 24.1 nM at BACE and 32.7 nM in the experiment with Aβ40 (average IC50, HEK cell assay).
Turning to `NC1=NC2(COC1)c1cc(-c3cccnc3F)ccc1Oc1cnc(-c3ccnc(F)c3)cc12` (stereo not shown), the IC50 at BACE came out at 0.9 nM; in the experiment on Aβ40 (setting [1]), 5.5 nM.
Consider `NC1=N[C@@]2(CO[C@@H]1C1CCOCC1)c1cc(-c3cccnc3F)ccc1Oc1cnc(Cl)cc12` (relative stereo), for which the IC50 on BACE came out at 333 nM; with Aβ40 (average IC50, HEK cell assay), 68.7 nM.
The like results for `NC1=NC2(COC1c1cccnc1)c1cc(-c3cccnc3F)ccc1Oc1cnc(Cl)cc12` (stereo not shown) were, in that order, 104 nM and 664 nM.
With `NC1=NC2(CCO1)c1cc(-c3cccnc3F)ccc1Oc1cnc(-c3ccnc(F)c3)cc12` (stereo not shown), the IC50 is 25 nM at BACE and 36.6 nM with Aβ40 (setting [1]).
Regarding `NC1=NC2(COC1C1CCOCC1)c1cc(Br)ccc1Oc1cnc(Cl)cc12` (stereo not shown), the IC50 on BACE is 2550 nM; in the experiment on Aβ40 (average IC50, HEK cell assay), 2450 nM.
For the compound `NC1=N[C@@]2(COC1)c1cc(-c3cccnc3F)ccc1Oc1cnc(C3=CCCOC3)cc12`, the IC50 was determined as 0.4 nM on BACE and 0.6 nM with Aβ40 (setting [1]). Besides, the “% reduction of rat CSF levels at 10 pmk” value in the experiment on Abeta 40 (Abeta 40, rat CSF, 10 mpk) is listed as 38%. Also, the “% reduction of rat brain levels at 10 mpk” value in the experiment with Abeta 40 (Abeta 40, rat brain) is reported as 27%.
In the case of `COc1cc(F)c2c(c1)C1(CCOC(N)=N1)c1cc(-c3cccnc3F)ccc1O2` (stereo not shown), the IC50 came to 102 nM on BACE and 272 nM in the experiment with Aβ40 (average IC50, HEK cell assay).
For the compound `NC1=NC2(CCO1)c1cc(-c3cccnc3F)ccc1Oc1ncc(-c3ccnc(F)c3)cc12` (stereo not shown), the IC50 is 19.9 nM at BACE and 17 nM in the experiment with Aβ40 (average IC50, HEK cell assay).
The like results for `NC1=NC2(CCO1)c1cc(-c3cccnc3)ccc1Oc1cnc(-c3cccnc3)cc12` (stereo not shown) [compound 150, 3,7-di-3-pyridinyl-5′,6′-dihydrospiro[chromeno[2,3-c]pyridine-5,4′-[1,3]oxazin]-2′-amine] were, in that order, 61.6 nM and 34.2 nM.
